Laboratory results reported in US20080287445A1, “Prokineticin 2 receptor antagonists” (priority 2005, published 2008).

Amino acid sequences for entries named in this document (tags omitted).
UniProt Q8TCW9, whole entry: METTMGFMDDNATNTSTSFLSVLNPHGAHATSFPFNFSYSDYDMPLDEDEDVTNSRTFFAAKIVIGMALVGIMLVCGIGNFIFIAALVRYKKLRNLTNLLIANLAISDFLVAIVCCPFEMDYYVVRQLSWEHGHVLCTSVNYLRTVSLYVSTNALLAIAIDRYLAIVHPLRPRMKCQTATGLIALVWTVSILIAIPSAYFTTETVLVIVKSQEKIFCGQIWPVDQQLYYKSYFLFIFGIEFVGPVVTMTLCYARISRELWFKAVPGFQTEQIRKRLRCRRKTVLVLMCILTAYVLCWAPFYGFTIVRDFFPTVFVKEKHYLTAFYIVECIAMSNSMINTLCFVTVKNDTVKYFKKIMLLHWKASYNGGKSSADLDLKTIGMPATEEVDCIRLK

Target: GPR73 (prokineticin 1 receptor) (Homo sapiens, UniProt Q8TCW9)
Test: PK1 functional assay: Ca2+ mobilization screening for PK1 antagonists on the FLIPR
Details: HEK 293 GPR73 cells, multiple values = multiple testing
Description: At a time of 24 h prior to running the assay, in cell culture media (DMEM containing high Glucose and L-glutamine, 10% FBS, 1% Pen/Streptomycin, 1% Sodium Pyruvate, 20 mM HEPES, Zeocin 200 mg/L), 100 μL of 1.3*10^6/ml HEK 293 GPR73 (prokineticin 1 receptor) expressing cells were plated in a 96 well poly-d-lysine coated plate (Costar), and incubated at 37 C and 5% CO2. On the day in which the assay was run, the media was removed and 200 μL of 5× Calcium Plus Dye (Molecular Devices) which was previously resuspended with 200 mL of assay buffer [HBSS w/Ca^2+ and Mg^2+ w/o phenol red, 20 mM HEPES, 0.1% BSA, 10 mL probenecid (710 mg probenecid in 5 mL of 1N NaOH, to which was then added 5 mL HBSS containing 20 mM HEPES)] was added to each well of the 96-well plate. The plate was incubated at 37 C and 5% CO2 for 30 min in dark. The plate was removed and allowed to reach RT for 15 min in the dark. The assay was then run on the FLIPR. In Brief: base line read for 1 min, compound added (25 μL) and incubated for 4 min, 15 seconds, PK1 ligand preparation added (25 μL) for a final concentration of a previously determined EC50 and fluorescence was counted for 1 min, 45 seconds. Baseline is described as the amount of relative fluorescence read when buffer alone is added to cells. Baseline was subtracted from all wells. Percent of control was calculated as follows: […]

- Ca^2+ Mobilization % Inh @ 10 μM (10 μM compound): 62%
- IC50 (read-out: Ca^2+ Mobilization IC50, PK1 ligand preparation at its EC50): 4.5 µM
Compound: Nc1ncccc1CNc1nc(=O)n(Cc2ccc(OC(F)F)cc2)c(=O)n1Cc1ccc(OC(F)F)cc1
